Measured values: ChEMBL document CHEMBL1649565, “Besifloxacin, a novel fluoroquinolone, has broad-spectrum in vitro activity against aerobic and anaerobic bacteria” (Antimicrob Agents Chemother, 2009)

Columns and labels:
Format in all cases: functional
[1] = Antibacterial activity against Lancefield Streptococcus sp. 'group G' assessed as percent susceptible isolates by CLSI M100-S18 method
Streptococcus agalactiae = experiment: Antibacterial activity against Streptococcus agalactiae assessed as percent susceptible isolates by CLSI M100-S18 method
[2] = Antibacterial activity against Lancefield Streptococcus sp. 'group C' assessed as percent susceptible isolates by CLSI M100-S18 method

Measured: Activity

CC[C@H]1OC(=O)[C@H](C)[C@@H](O[C@H]2C[C@@](C)(OC)[C@@H](O)[C@H](C)O2)[C@H](C)[C@@H](O[C@@H]2O[C@H](C)C[C@H](N(C)C)[C@H]2O)[C@](C)(O)C[C@@H](C)CN(C)[C@H](C)[C@@H](O)[C@]1(C)O [AZITHROMYCIN]
98%: all assays above
